The list shows a part of the results, in another mix than the full data. Potency and affinity values are given separately. The source made the active and inactive calls.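 How the source made its calls: active means displacement of at least 50% at 20 µM, with a fluorescence ratio check between 0.3 and a set limit; inactive means the rest.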
What follows are molecules tested against E3 ubiquitin-protein ligase SIAH1 (Homo sapiens) (UniProt Q8IUQ4) (assay: Siah-1 peptide-binding antagonists, primary screen, biochemical, fluorescence polarization, rhodamine-plectin, uHTS (AID 1817;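 further: plate controls were Siah plus tracer with DMSO for no effect and tracer alone without Siah for full effect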)). Details: Siah-1 / rhodamine-plectin peptide fluorescence polarization; at 20 µM; active compounds read high.

The chains behind the UniProt entries cited, without tags or fusion partners.
UniProt Q8IUQ4, whole entry: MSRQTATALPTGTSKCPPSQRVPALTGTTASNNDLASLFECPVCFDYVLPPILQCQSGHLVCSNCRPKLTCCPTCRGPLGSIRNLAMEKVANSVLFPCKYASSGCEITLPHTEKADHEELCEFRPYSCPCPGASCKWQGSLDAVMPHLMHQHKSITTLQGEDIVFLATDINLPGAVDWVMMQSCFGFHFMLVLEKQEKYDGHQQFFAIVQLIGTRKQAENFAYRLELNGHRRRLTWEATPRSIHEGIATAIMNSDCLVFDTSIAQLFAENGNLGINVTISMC
UniProt Q15149, whole entry partner: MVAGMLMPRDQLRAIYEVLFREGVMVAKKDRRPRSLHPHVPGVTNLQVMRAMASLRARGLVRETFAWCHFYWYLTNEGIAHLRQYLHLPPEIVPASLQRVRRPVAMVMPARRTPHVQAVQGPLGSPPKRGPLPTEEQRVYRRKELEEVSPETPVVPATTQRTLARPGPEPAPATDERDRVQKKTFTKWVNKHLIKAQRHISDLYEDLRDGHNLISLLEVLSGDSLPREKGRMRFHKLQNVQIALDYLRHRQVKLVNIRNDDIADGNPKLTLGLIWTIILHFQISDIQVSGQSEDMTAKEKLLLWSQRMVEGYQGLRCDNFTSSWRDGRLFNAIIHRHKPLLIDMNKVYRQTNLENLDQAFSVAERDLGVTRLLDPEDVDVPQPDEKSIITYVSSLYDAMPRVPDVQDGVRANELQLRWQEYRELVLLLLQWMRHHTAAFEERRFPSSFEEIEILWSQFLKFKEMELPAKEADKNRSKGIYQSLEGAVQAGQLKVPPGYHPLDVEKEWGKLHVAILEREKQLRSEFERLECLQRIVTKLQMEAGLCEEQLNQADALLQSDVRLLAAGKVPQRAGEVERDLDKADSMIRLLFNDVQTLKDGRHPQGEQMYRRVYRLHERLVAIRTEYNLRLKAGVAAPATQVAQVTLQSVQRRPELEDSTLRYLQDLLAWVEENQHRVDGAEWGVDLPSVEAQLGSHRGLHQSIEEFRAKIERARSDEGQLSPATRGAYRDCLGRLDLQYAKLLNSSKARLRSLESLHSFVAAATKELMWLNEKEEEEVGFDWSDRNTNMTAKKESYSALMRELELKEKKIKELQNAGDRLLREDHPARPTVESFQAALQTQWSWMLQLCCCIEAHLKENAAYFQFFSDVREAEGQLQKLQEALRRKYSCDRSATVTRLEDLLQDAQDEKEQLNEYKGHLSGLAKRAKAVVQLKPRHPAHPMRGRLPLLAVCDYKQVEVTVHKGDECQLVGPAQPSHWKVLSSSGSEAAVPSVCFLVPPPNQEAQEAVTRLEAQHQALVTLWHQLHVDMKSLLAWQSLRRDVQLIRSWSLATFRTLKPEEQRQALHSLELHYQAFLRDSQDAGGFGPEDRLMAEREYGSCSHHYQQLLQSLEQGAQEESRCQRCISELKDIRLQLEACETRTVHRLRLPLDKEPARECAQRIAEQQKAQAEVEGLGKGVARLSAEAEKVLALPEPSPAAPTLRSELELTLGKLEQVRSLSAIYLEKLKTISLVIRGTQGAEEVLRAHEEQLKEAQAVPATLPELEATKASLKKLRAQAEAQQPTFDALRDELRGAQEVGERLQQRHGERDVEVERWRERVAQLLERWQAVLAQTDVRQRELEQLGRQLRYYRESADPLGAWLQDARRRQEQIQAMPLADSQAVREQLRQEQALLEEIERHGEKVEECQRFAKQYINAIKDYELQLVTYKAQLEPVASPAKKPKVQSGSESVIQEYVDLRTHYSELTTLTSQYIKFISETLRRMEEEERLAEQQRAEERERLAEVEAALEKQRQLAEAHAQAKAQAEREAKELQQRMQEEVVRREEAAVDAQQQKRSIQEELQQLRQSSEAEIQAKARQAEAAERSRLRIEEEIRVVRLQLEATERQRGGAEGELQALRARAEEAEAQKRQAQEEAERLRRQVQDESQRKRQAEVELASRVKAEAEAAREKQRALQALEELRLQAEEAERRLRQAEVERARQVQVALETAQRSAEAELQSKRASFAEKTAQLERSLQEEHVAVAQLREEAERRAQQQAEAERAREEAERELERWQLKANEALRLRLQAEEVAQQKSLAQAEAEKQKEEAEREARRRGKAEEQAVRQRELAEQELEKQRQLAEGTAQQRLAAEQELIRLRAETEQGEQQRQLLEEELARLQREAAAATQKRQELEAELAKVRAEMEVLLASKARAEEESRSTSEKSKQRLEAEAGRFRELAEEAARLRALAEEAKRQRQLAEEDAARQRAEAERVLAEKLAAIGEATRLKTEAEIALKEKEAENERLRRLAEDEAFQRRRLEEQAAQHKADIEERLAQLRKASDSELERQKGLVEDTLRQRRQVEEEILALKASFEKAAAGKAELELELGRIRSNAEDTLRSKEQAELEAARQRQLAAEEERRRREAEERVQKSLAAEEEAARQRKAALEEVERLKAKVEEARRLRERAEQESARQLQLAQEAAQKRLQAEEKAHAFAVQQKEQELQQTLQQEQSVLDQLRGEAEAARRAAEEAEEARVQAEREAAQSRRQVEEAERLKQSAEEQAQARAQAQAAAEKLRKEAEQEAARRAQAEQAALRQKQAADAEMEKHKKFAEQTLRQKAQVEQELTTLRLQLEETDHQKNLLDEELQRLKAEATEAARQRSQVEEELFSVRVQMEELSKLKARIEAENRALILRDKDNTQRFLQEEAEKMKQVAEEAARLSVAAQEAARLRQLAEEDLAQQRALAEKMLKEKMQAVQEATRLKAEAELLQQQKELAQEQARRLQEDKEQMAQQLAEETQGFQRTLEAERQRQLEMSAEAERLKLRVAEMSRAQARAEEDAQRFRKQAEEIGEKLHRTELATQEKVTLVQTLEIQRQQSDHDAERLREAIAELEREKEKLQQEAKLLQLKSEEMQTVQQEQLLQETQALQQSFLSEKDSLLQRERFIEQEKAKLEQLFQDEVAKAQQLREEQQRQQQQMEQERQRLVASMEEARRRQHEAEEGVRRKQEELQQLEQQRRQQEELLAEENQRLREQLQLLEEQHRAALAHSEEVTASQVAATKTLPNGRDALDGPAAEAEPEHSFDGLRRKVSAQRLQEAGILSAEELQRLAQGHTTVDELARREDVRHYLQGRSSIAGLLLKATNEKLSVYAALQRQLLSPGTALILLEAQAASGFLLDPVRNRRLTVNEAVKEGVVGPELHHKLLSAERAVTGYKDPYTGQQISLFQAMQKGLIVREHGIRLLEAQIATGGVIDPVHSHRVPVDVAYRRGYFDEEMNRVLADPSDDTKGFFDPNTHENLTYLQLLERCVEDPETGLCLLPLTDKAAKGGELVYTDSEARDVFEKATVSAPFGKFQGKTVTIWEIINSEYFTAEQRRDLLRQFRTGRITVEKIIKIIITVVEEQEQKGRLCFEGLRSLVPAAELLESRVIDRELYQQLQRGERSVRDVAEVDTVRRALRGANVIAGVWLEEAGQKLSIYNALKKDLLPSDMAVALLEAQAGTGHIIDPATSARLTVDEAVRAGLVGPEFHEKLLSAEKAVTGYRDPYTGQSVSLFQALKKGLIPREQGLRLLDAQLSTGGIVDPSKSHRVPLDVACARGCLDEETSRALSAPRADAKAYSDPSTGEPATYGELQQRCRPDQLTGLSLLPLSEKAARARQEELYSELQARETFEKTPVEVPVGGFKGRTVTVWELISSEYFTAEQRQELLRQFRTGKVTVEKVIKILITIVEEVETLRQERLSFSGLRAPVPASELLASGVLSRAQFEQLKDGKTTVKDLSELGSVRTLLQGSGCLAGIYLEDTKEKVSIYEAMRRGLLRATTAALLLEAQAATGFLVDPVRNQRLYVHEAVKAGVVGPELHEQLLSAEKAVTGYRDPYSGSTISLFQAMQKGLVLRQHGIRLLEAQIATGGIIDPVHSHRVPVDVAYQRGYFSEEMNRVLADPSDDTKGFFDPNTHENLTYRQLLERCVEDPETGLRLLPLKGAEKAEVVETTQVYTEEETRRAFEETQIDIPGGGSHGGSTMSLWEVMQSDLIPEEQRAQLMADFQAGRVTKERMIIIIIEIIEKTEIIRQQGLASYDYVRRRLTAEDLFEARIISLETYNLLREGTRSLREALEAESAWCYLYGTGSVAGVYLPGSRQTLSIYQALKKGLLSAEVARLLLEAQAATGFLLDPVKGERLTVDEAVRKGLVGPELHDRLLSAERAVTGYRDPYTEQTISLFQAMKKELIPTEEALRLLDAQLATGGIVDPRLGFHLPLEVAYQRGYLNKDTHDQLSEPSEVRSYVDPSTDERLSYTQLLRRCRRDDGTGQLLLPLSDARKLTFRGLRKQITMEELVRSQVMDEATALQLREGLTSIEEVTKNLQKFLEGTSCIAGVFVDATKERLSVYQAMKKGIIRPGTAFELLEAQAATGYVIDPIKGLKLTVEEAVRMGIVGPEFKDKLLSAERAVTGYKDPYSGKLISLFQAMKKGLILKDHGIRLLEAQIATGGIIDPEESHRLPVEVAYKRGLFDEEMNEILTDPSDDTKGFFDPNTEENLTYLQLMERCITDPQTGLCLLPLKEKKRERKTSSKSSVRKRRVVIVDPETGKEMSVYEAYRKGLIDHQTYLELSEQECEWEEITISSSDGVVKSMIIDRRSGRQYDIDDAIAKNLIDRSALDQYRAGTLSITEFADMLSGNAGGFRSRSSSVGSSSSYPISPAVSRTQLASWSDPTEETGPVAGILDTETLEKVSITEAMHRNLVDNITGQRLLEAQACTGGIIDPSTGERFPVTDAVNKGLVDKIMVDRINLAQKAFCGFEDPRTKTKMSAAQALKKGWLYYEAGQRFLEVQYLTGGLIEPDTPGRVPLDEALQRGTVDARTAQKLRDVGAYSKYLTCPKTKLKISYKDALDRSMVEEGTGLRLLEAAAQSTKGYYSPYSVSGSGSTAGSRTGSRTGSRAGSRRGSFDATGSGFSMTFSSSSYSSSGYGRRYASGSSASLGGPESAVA

Q: How did the displacement turn out when CCOc1ccc(C)cc1CN(CCCl)CCCl was run?
A: inactive: 5.5%

Q: Which displacement does the source give for O=C(NCC1(N2CCCCC2)CCCCC1)c1ccc(F)cc1 here?
A: inactive: 5.6%

Q: How did the displacement turn out when CCOC(=O)N1CCC(Nc2ccc(F)cc2)CC1 was run?
A: inactive: -0.2%

Q: For COc1ccc(NC2CCN(CCc3ccccc3)CC2)c(OC)c1, which displacement is on record?
A: inactive: 4.6%

Q: Which displacement does the source give for CCOC(=O)N1CCC(Nc2cccc(C)c2)CC1 here?
A: inactive: 11.4%

Q: With COc1cc(C(=O)NCC2(N(C)C)CCCCC2)ccc1OC(F)F as the molecule, how does the displacement read?
A: inactive: -4.3%

Q: For Cc1ccc(OCC(C)C)c(CN(CCCl)CCCl)c1, which displacement is on record?
A: inactive: -5.2%

Q: With COc1ccc(C(=O)NCC2(N3CCCCC3)CCCCC2)cc1 as the molecule, how does the displacement read?
A: inactive: 2.1%

Q: For CC(C)(C)OC(=O)N1CCC(N(C(=O)c2ccccc2)c2ccc(F)cc2)CC1, which displacement is on record?
A: inactive: 0.3%

Q: For COc1ccc(C(=O)NCC2(N3CCCCC3)CCCCC2)c(OC)c1OC, which displacement is on record?
A: inactive: -1.9%

Q: How did the displacement turn out when O=C(NCC1(N2CCCCC2)CCCCC1)c1ccc(=O)[nH]c1 was run?
A: inactive: -1.1%

Q: For CSc1ccccc1C(=O)NCC1(N2CCCCC2)CCCCC1, which displacement is on record?
A: inactive: -3.1%

Q: Which displacement does the source give for Cc1cc(C)cc(N(C(=O)c2ccccc2)C2CCN(C(=O)OC(C)(C)C)CC2)c1 here?
A: inactive: -4.3%

Q: O=C(NCC1(N2CCOCC2)CCCCC1)c1cc2ccccc2o1 was tested. Which displacement did it give?
A: inactive: 3.2%

Q: N#CC1(Nc2ccccc2)CCN(Cc2ccccc2)CC1 was tested. Which displacement did it give?
A: inactive: -3.5%

Q: For O=C(OC1CN2CCC1CC2)C1c2ccccc2Oc2ccccc21 (centres undefined), which displacement is on record?
A: inactive: -5.8%

Q: With CCOC(=O)N1CCC(Nc2ccc(OC)cc2)CC1 as the molecule, how does the displacement read?
A: inactive: 2.6%

Q: CC(C)c1ccc(NC2CCN(C(=O)OC(C)(C)C)CC2)cc1 was tested. Which displacement did it give?
A: inactive: -6.7%

Q: How did the displacement turn out when COc1ccc(CN(CCCl)CCCl)cc1Cl was run?
A: inactive: 1.3%

Q: For CN(C)c1cccc(C(=O)NCC2(N3CCCCC3)CCCCC2)c1, which displacement is on record?
A: inactive: 12.4%

Q: With COc1cc(OC)c(C(=O)NCC2(N(C)C)CCCCC2)cc1OC as the molecule, how does the displacement read?
A: inactive: -0.3%

Q: How did the displacement turn out when CCCOc1ccc(C(=O)NCC2(N(C)C)CCCCC2)cc1OC was run?
A: inactive: -6.2%

Q: For O=C(NCC1(N2CCCCC2)CCCCC1)c1ccc(OC(F)F)cc1, which displacement is on record?
A: inactive: -6.9%

Q: How did the displacement turn out when CCN1CCC(Nc2ccc(Cl)cc2)CC1 was run?
A: inactive: 8.4%

Q: N#CC1(Nc2ccccc2)CCN(CCc2ccccc2)CC1 was tested. Which displacement did it give?
A: inactive: 0.5%

Q: For O=C(NCC1(N2CCCCC2)CCCCC1)c1cccc([N+](=O)[O-])c1, which displacement is on record?
A: inactive: 2.9%

Q: For O=C(NCC1(N2CCCCC2)CCCCC1)c1cccc(C(F)(F)F)c1, which displacement is on record?
A: inactive: 0%

Q: O=C(NCC1(N2CCOCC2)CCCCC1)c1cc(=O)[nH]c2ccccc12 was tested. Which displacement did it give?
A: inactive: -2.1%

Q: Which displacement does the source give for COc1cc(C(=O)NCC2(N3CCCCC3)CCCCC2)ccc1OC(F)F here?
A: inactive: 2.9%

Reference: PubChem BioAssay AID1817 (Sanford-Burnham Center for Chemical Genomics, 2009)
